Measured values taken from patent publication EP4534528A1, “NOVEL SULFANONE DERIVATIVE OR PHARMACEUTICALLY ACCEPTABLE SALT THEREOF, AND USE THEREOF” (Korea Institute of Science and Technology, priority 2022, dated 2023).

Tested on: NO (nitric oxide)
Test: NO (nitric oxide) inhibitory activity in LPS-treated BV-2 microglial cells
Format: cell-based
Details: Mus musculus, BV-2, 24 h; for activity at 10 µM: read-out: Amount of NO (% of control) 10 µM

| Structure (SMILES) | activity at 0.1 µM (read-out: Amount of NO (% of control) 0.1 µM) [%] | activity at 1 µM (read-out: Amount of NO (% of control) 1 µM) [%] | activity at 10 µM [%] |
| --- | --- | --- | --- |
| N=S(=O)(/C=C/c1ncccc1Cl)c1ccccc1F (stereo not drawn) [Compound 1-6, (E)-(2-(3-chloropyridin-2-yl)vinyl)(2-fluorophenyl)(imino)-λ^6-sulfanone] | 82.9 | 43.7 | < 3 |
| COc1cccc(S(=N)(=O)/C=C/c2ncccc2Cl)c1 (stereo not drawn) [Compound 1-9, (E)-(2-(3-chloropyridin-2-yl)vinyl)(imino)(3-methoxyphenyl)-λ^6-sulfanone] |  |  | < 3 |
| N=S(=O)(/C=C/c1ccccc1Cl)c1ccccn1 (stereo not drawn) [Compound 1-15, (E)-(2-chlorostyryl)(imino)(pyridin-2-yl)-λ^6-sulfanone] |  |  | < 3 |
| N=S(=O)(/C=C/c1c(Cl)cccc1Cl)c1ccccn1 (stereo not drawn) [Compound 1-19, (E)-(2,6-dichlorostyryl)(imino)(pyridin-2-yl)-λ^6-sulfanone] |  |  | < 3 |
